Experimental data taken from US20240239801A1, “PYRIMIDO[5,4,D]PYRIMIDINE COMPOUNDS, COMPOSITIONS COMPRISING THEM AND USES THEREOF” (Université de Montréal, priority 2021, published 2024).

Sequences of proteins named here, by UniProt entry; tags and fusion partners are left off. Residues count along the entry.
UniProt P10398, 310-570 limits assumed: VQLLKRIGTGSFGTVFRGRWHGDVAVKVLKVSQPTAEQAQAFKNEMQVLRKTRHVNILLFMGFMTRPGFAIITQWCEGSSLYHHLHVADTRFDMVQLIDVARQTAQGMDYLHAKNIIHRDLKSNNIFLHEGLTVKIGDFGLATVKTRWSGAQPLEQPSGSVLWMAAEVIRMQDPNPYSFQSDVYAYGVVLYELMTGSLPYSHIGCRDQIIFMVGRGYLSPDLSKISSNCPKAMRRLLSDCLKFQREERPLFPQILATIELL
UniProt P15056, whole entry: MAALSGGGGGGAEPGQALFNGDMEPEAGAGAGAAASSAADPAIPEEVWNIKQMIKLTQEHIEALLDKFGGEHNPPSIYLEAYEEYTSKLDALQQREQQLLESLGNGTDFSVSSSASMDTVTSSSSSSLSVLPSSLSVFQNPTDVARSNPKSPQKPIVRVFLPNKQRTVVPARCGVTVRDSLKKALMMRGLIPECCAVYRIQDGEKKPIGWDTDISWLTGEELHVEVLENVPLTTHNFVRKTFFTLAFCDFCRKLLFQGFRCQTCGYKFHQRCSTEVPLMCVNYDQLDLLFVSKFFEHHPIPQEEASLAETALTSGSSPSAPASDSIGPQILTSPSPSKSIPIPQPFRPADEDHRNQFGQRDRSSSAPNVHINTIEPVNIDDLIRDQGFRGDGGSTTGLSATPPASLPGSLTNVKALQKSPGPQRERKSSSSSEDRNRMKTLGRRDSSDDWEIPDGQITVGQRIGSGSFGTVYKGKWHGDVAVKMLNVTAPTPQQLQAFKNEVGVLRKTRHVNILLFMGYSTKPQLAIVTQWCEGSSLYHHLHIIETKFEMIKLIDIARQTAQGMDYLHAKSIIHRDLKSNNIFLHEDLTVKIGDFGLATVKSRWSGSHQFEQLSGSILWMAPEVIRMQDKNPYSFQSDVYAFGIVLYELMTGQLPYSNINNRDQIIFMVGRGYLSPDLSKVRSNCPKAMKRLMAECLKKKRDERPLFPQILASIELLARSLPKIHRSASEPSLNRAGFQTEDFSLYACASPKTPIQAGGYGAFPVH
UniProt P04049, whole entry: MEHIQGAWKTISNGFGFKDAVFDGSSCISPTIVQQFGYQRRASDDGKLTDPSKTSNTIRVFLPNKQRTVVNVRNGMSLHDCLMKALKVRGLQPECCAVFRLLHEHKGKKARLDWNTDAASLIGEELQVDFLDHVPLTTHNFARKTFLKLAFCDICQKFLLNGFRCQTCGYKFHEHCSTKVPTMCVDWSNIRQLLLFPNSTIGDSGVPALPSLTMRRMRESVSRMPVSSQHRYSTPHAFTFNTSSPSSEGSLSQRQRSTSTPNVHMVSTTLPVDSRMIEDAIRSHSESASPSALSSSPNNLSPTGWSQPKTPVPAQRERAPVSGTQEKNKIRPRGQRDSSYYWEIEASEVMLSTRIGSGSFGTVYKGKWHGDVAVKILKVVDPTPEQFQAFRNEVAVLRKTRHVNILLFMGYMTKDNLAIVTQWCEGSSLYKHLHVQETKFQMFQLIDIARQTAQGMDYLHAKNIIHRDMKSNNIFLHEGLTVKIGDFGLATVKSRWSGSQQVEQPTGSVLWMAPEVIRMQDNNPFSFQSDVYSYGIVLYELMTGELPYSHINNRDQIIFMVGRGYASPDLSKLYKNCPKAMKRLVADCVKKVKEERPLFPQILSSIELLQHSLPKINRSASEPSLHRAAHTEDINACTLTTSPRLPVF

Experiments:
ARAF = ARAF (Homo sapiens, UniProt P10398); experiment: ARAF kinase activity assay (AlphaLISA p-MEK detection); details: read-out: Kinase IC50 (nM) ARAF; Table A
Protocol: (§1) Compound preparation: solid samples of each substances in 1dram vials were suspended in DMSO (Fisher Scientific) at a stock concentration of 20 mM. Stocks were kept at −20° C. and protected from light. If solubility of the compound at 20 mM appeared to be an issue, the initial concentration of the DMSO stock was changed to 10 mM or 5 mM.
In vitro enzymatic reactions were used for evaluating compounds intrinsic activity against BRAF, CRAF and ARAF. […]
ARAF kinase reactions were carried out for a total of 2 hours at 30° C. and then stopped by addition of EDTA at a final concentration of 40 mM. Reactions were then detected using the AlphaLISA® SureFire® Ultra™ p-MEK ½ (Ser218/222) (PerkinElmer) kit. […] After completion of the detection reactions, the signals were recorded on a Synergy Neo2 plate reader (Biotek) equipped with AlphaLISA® filters. The effect of each compound dilution on the pMEK signal generated by ARAF reactions was expressed in % inhibition and calculated as follows. […]

BRAF = BRAF (Homo sapiens, UniProt P15056); experiment: BRAF kinase activity assay (ADP-Glo); details: read-out: Kinase IC50 BRAF; Table 3
Protocol: as §1
(§2) In vitro enzymatic reactions were used for evaluating compounds intrinsic activity against BRAF, CRAF and ARAF. For BRAF and CRAF, 0.375 nM of purified GST-tagged kinases (cat #B4062-10UG and cat #R1656-10UG respectively from Millipore Sigma) were incubated with 75 nM of kinase-dead MEK1 substrate (cat #40075; BPS Bioscience) in the presence of 10 μM of Ultrapure ATP (cat #V9102; Promega; part V915A) with and without the test compound in a buffer containing 50 mM HEPES pH 7.5, 10 mM MgCl2, 1 mM EDTA, 0.01% Brij-35 and 2 mM DTT. Separate reactions were performed with the MEK1 substrate and ATP as a blank control. ARAF, kinase reactions were rigorously the same with the exception that kinase concentration was raised to 3.75 nM (cat #1768-0000-1; Reaction Biology).
(§3) For compound treatment, 5 μL/well of test substance solution are placed in a 384-well proxyplate (Perkin Elmer) and mixed with 2× concentrated kinase reactions. The dilution series is selected so that nine concentrations cover a range from 100 nM to 0.01 nM. […] The final concentration of DMSO in the assay is set at 0.05%.
(§4) BRAF and CRAF kinase reactions were carried out for a total of 2 hours at 30° C. and then stopped by ½ dilution in ADP-Glo Reagent (cat #V9102; Promega; part V912C). Reactions were then incubated for 1 h at room temperature before addition of one volume of Kinase Detection Reagent (cat #V9102; Promega; part V917A). Plates were then equilibrated at room temperature for 30 minutes before detection of luminescence on a Synergy Neo2 plate reader (Biotek). The effect of each compound dilution on BRAF and CRAF kinase activity was expressed as % inhibition and calculated as follows. First, the internal 100% inhibition control (average of luminescence in kinase reactions comprising kinase dead MEK1 substrate alone) was subtracted from each data point. The average of DMSO (vehicle) controls (set as 0% inhibition) was established and used to calculate % inhibition:
(§5) IC50 values were obtained by plotting the kinase inhibition values and fitting the dose-activity curves using a log(agonist) versus response−variable slope (four parameters) function using either GraphPadPrism (V7.0) or Dotmatics Screening Ultra platform. Standards included in the ARAF kinase assay were Belvarafenib (MedChem Express cat #HY-109080; CAS #1446113-23-0), LXH254 (MedChem Express cat #HY-112089; CAS #1800398-38-2) and BGB283 (cat #HY-18957; CAS #1446090-79-4).

CRAF = CRAF (Homo sapiens, UniProt P04049); experiment: CRAF kinase activity assay (ADP-Glo); details: read-out: Kinase IC50 CRAF; Table 3
Protocol: as §1, §2, §3, §4, §5

Row | IC50 (ARAF) | IC50 (BRAF) | IC50 (CRAF) | Structure (SMILES)
1 | 10 to 20 nM | < 0.001 µM | 0.01 to 0.05 µM | COc1ccc(S(=O)(=O)Nc2ccc(F)c(Nc3ncnc4cnc(-n5cc(S(=O)(=O)N(C)CCN(C)C)c6ccccc65)nc34)c2F)c(C)c1Cl
2 | > 20 nM | > 0.01 µM | 0.01 to 0.05 µM | O=S(=O)(Nc1ccc(F)c(Nc2ncnc3cnc(-n4cnc5c(N6CCC(O)(C(F)(F)F)CC6)cccc54)nc23)c1F)c1cccc(Cl)c1Cl
